Experimental data reported in patent US12630600B2 (MEDIMMUNE LIMITED, priority 2022, dated 2026).

By UniProt entry, the sequences of proteins in these tests, tags left out. Residues count along the entry.
UniProt P43220, 24-463: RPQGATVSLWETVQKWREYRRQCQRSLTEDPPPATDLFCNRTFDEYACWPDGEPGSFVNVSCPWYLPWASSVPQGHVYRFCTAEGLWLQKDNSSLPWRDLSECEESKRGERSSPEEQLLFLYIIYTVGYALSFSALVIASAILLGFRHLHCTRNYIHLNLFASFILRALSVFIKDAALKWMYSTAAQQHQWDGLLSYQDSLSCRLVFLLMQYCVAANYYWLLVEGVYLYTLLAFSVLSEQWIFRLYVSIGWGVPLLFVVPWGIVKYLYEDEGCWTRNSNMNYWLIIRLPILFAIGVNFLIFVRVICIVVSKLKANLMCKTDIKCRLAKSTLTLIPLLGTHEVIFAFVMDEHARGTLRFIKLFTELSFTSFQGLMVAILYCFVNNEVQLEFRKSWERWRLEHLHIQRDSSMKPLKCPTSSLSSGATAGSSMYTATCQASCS

Target: T1, human GLP-1 receptor (hGLP-1R) (Homo sapiens, UniProt P43220)
T1 construct: expressed in transfected cells; host or cells: CHO
Test: cAMP production (HTRF) in CHO cells expressing human GLP-1 receptor
Format: cell-based
Conditions: Table 8; % GLP-1R activity relative to GLP-1 / % GlucR activity relative to glucagon
Method: Cells were re-suspended in assay buffer at a batch-dependent optimized concentration (typically hGLP-1R cells at 1×10^5 cells/mL, hGCGR cells at 2×10^5 cells/mL).
Cells were added to the assay plate using a multidrop dispenser and incubated at room temperature for 30 minutes before measuring the cAMP level using a cAMP dynamic 2 homogeneous time resolved Fluorescence (HTRF) kit (Cisbio Bioassays #62AM4PEJ) following the two-step protocol as per manufacturer's recommendations. In brief, anti-cAMP cryptate (donor fluorophore) and cAMP-d2 (acceptor fluorophore) were made up separately by diluting each 1 in 20 in conjugate and lysis buffer provided in the kit. Anti-cAMP cryptate was added to all wells of the assay plate, followed by cAMP-d2 added to all wells except non-specific binding (NSB) wells (to which conjugate and lysis buffer was added).
Data was transformed to % Delta F as described in the manufacturer's guidelines and analyzed by 4-parameter logistic fit to determine EC50 values.

Question: With `CC[C@H](C)[C@H](NC(=O)[C@H](Cc1c[nH]c2ccccc12)NC(=O)[C@H](CCCCNC(=O)COCCOCCNC(=O)COCCOCCNC(=O)CC[C@H](NC(=O)CCCCCCCCCCCCCCCCC(=O)O)C(=O)O)NC(=O)[C@@H](NC(=O)[C@H](Cc1ccccc1)NC(=O)[C@H](CC(=O)O)NC(=O)[C@H](CCC(N)=O)NC(=O)[C@H](C)NC(=O)[C@H](C)NC(=O)[C@H](CCC(N)=O)NC(=O)[C@H](CO)NC(=O)[C@H](CC(=O)O)NC(=O)[C@H](CC(C)C)NC(=O)[C@](C)(Cc1ccccc1)NC(=O)[C@H](CCCCN)NC(=O)[C@H](CO)NC(=O)[C@@H](NC(=O)[C@H](CC(=O)O)NC(=O)[C@H](CO)NC(=O)[C@@H](NC(=O)[C@H](Cc1ccccc1)NC(=O)[C@@H](NC(=O)CNC(=O)[C@H](Cc1c[nH]cn1)NC(=O)C(C)(C)NC(=O)[C@@H](N)Cc1c[nH]cn1)[C@@H](C)O)[C@@H](C)O)C(C)C)C(C)C)C(=O)N[C@@H](C)C(=O)N[C@@H](CC(N)=O)C(=O)N[C@H](C(N)=O)[C@@H](C)O` [Peptide 345] as the molecule, how does the “% Relative Potency Ratio” value read?
Answer: 0.1
